# pKi: −log10 of the molar value.
# Protein sequences, listed by entry. Tags and fused reporters are not part of them.
# UniProt P19020, whole entry: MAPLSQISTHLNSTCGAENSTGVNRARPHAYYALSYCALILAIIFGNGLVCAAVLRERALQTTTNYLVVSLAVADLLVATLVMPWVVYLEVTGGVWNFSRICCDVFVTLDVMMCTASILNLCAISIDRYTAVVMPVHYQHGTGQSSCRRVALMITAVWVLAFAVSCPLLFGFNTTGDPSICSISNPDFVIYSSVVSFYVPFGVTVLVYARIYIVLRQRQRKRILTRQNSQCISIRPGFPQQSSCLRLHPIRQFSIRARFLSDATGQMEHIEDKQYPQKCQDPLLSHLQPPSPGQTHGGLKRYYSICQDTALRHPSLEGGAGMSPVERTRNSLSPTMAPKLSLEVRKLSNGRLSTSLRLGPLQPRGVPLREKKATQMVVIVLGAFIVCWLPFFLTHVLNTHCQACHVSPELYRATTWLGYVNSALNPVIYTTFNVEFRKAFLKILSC
# UniProt P61169, whole entry: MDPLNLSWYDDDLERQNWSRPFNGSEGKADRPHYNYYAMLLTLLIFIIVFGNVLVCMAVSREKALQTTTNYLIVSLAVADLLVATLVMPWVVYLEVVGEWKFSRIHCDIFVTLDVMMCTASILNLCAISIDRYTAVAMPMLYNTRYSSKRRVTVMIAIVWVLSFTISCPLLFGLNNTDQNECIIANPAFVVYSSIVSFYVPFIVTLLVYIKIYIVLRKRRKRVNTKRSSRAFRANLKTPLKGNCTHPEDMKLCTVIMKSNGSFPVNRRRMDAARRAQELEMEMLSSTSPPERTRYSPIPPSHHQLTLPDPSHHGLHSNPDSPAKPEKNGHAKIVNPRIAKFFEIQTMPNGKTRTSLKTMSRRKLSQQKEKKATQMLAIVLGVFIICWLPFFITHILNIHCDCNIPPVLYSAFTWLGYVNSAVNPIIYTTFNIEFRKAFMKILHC
# UniProt P35462, whole entry: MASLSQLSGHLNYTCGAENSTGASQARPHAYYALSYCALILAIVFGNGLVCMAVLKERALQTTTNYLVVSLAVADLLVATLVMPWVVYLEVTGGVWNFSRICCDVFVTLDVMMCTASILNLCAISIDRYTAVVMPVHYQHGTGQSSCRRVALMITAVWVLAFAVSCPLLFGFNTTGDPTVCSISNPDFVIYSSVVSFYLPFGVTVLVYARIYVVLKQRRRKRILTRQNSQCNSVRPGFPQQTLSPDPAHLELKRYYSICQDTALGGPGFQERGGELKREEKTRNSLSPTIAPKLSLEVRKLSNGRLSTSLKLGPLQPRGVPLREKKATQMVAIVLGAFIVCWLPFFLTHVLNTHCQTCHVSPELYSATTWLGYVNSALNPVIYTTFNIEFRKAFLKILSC
# Assays:
# D(3) dopamine receptor [1] = biological target: D(3) dopamine receptor (Rattus norvegicus, UniProt P19020)
# D(2) dopamine receptor = D(2) dopamine receptor (Rattus norvegicus, UniProt P61169)
# D(3) dopamine receptor [2] = biological target: D(3) dopamine receptor (Homo sapiens, UniProt P35462); experiment: biochemical
Structure (SMILES),pKi (D(3) dopamine receptor [1]),pKi (D(2) dopamine receptor),pKi (D(3) dopamine receptor [2])
CCCN(CC[C@]1(O)C[C@@H](NC(=O)c2ccc3ccccc3c2)C1)[C@H]1CCc2nc(N)sc2C1,9.40,6.14,
CCCN(CC[C@]1(O)C[C@H](NC(=O)c2ccc3ccccc3c2)C1)[C@H]1CCc2nc(N)sc2C1,9.30,5.59,8.44
